Measured values from US20240269252A1, “COMPOSITIONS FOR INDUCING AN IMMUNE RESPONSE” (President and Fellows of Harvard College, priority 2017, published 2024).

Test: Biomolecule release quantification: incorporation efficiency and release kinetics of CpG ODN, GM-CSF and antigen from cryogel vaccines
Assay type: physicochemical

With “RMFPNAPYL (Arg-Met-Phe-Pro-Asn-Ala-Pro-Tyr-Leu) [WT-1126-134]” the encapsulation efficiency (encapsulated in vaccine cryogel by cryo-polymerization) was 75%, the “burst release of loaded antigen” value (from vaccine cryogel, over the first two days, in vitro) was 3.3% and the “amount released after the burst release” value (over a period of 10 days after the burst release) was roughly 4 µg.
